Measured values published in PMC10466050, “A comparative study of human and zebrafish glucocorticoid receptor activities of natural and pharmaceutical steroids” (Frontiers in Endocrinology, 2023).

Assays:
hGR [1] = biological target: T1, hGR (Homo sapiens, UniProt P04150); settings: HMLN-hGR; with 3 nM dexamethasone; % of maximal luciferase activity induced by 100 nM dexamethasone; at 10^-5M
T1 sequence (P04150 1-777): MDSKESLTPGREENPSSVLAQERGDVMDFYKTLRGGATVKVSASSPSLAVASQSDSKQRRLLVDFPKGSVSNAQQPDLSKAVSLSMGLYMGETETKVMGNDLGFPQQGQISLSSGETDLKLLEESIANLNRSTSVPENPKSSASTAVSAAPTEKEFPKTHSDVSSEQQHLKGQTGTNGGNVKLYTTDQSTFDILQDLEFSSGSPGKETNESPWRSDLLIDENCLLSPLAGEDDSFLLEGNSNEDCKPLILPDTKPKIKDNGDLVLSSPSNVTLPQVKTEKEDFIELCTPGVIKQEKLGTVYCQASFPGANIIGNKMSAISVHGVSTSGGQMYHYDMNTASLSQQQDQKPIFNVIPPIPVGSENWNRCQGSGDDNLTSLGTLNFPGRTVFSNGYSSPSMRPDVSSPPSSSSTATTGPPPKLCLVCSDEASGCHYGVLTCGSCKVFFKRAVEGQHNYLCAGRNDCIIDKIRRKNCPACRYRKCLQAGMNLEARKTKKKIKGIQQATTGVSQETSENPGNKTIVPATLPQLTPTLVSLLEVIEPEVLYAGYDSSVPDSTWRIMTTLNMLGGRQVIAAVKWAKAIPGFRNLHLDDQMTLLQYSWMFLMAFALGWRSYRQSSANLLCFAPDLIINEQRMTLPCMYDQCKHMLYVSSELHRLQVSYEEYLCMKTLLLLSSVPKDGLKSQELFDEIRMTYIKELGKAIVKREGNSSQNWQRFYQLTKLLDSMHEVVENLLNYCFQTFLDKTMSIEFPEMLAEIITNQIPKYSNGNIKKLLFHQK

hGR [2] = biological target: T1, hGR; test: cell-based

CC(=O)[C@@]1(O)CC[C@H]2[C@@H]3CCC4=CC(=O)CC[C@]4(C)[C@H]3CC[C@@]21C [17α-hydroxyprogesterone]
% min act (minimal activity) (hGR [1]): 14 ± 4%
IC50 (hGR [2]): 1.72 µM
